This experiment addresses Aldo-keto reductase family 1 member B1 (Homo sapiens, UniProt P15121). Description: Inhibitory Activity against Human recombinant Aldose Reductase (wild type).

pIC50: −log10 of the molar value.

For orientation: pIC50 means −log10 of the IC50, conventionally taken in molar units.

As for `O=C(O)Cc1nn(Cc2nc3cc(C(F)(F)F)ccc3s2)c(=O)c2ccccc12` [ZOPOLRESTAT], the pIC50 is 7.44.

These data come from ChEMBL document CHEMBL1133160, “Molecular modeling of the aldose reductase-inhibitor complex based on the X-ray crystal structure and studies with single-site-directed mutants” (J Med Chem, 2000).
